Reference: ChEMBL document CHEMBL1629585, “Nationwide survey of CTX-M-type extended-spectrum beta-lactamases among Klebsiella pneumoniae isolates in Slovenian hospitals” (2009)

What was measured:
[1] = tested on: Klebsiella pneumoniae; test: Antibacterial activity against Klebsiella pneumoniae C expressing CTX-M group 1 beta-lactamase by Etest method; assay type: functional
[2] = tested on: Escherichia coli; details: J53-2

GENTAMICIN
MIC [1]: 0.5 µg/mL | MIC [2]: 0.5 µg/mL
